This test deals with Topoisomerase II (Topo II). Put plainly: ELISA-based Topo II inhibition assay kit (Abcam), recombinant human enzyme, colorimetric. Type of test: biochemical.

As a reminder, the IC50 is the concentration at which inhibition is half-maximal.

Consider `COc1cccc2c1C(=O)c1c(O)c3c(c(O)c1C2=O)C[C@@](O)(C(=O)CO)C[C@@H]3O[C@H]1C[C@H](N)[C@H](O)[C@H](C)O1` [DOX, doxorubicin], for which the IC50 was determined as 30.2 nM.

The record behind these values is paper PMC12680189, “Aotaphenazine, a rare hydrophenazine, targets topoisomerase II with anticancer efficacy: In silico to in vitro evidence” (PLOS One, 2025).
